Laboratory results from patent US20240115577A1, “SMALL MOLECULE REGULATORS OF ALVEOLAR TYPE 2 CELL PROLIFERATION FOR THE TREATMENT OF PULMONARY DISEASES” (THE SCRIPPS RESEARCH INSTITUTE, priority 2021, published 2024).

Amino acid sequences for entries named in this document (tags omitted).
UniProt P27487, whole entry: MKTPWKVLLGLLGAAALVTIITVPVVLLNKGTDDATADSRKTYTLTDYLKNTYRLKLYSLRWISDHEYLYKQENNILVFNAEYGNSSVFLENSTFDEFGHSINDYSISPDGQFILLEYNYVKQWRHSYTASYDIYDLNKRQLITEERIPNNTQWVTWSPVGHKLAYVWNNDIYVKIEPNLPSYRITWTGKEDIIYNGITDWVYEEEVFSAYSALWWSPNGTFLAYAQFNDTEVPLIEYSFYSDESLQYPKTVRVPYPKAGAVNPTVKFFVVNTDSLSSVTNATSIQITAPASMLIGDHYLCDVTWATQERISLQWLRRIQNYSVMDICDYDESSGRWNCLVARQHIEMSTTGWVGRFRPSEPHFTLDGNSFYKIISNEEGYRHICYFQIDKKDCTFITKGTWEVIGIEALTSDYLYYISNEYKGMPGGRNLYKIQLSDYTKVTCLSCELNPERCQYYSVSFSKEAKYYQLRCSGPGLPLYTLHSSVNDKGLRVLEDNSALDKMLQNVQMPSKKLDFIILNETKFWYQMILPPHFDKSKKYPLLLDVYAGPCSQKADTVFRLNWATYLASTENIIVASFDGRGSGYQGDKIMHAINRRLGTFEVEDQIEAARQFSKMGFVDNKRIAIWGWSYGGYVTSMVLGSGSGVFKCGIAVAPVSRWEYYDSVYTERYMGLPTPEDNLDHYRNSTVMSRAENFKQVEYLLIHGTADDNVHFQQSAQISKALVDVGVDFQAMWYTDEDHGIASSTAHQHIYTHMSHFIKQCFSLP

Key:
Primary human AEC2s = test: AEC2 proliferation assay (Ki67 high content imaging); format: cell-based; settings: Table 5
Human DPP4 = Human DPP4 (Homo sapiens (Human), UniProt P27487); test: DPP4 activity assay (Sigma-Aldrich MAK088 kit)

| IC50 (Human DPP4; read-out: DPPIV IC50, Table 4) | IC50 (Human DPP4; read-out: Observed DPP4 IC50, Table 5) | SMILES | EC50 (Primary human AEC2s) |
| --- | --- | --- | --- |
|  |  | CC#CCn1c(N2CCC[C@@H](N)C2)nc2c1c(=O)n(Cc1nc(C)c3ccccc3n1)c(=O)n2C [Cpd 5, (R)-8-(3-aminopiperidin-1-yl)-7-(but-2-yn-1-yl)-3-methyl-1-((4-methylquinazolin-2-yl)methyl)-3,7-dihydro-1H-purine-2,6-dione] | 260 nM |
| 11.4 nM | 11.4 nM | Cc1cc2ncc(C(=O)NCC(C)(C)NCC(=O)N3CCC[C@H]3C#N)cn2n1 [Cpd 12, (S)-N-(2-((2-(2-cyanopyrrolidin-1-yl)-2-oxoethyl)amino)-2-methylpropyl)-2-methylpyrazolo[1,5-a]pyrimidine-6-carboxamide] |  |
|  |  | CC(C)(C)OC[C@@H]1C(=O)NCCN1C(=O)C[C@H](N)Cc1cc(F)c(F)cc1F [Cpd 13, (R)-4-((R)-3-amino-4-(2,4,5-trifluorophenyl)butanoyl)-3-(tert-butoxymethyl)piperazin-2-one] | 15 nM |

Where two headings read alike, the source gives them in different places.
